Literature values, collected in US20220370545A1, “INTEGRIN RECEPTOR ALPHA V BETA 3 AND ITS LIGAND INVOLVED IN CHRONIC ITCH” (North Carolina State University, priority 2019, published 2022).

Biological target: T1, TSLP (Homo sapiens, UniProt Q969D9)
T1 construct: host or cells: human atopic dermatitis patients (clinical study cited)
Conditions: in vivo; cited from earlier work

Substance: tezepelumab: anti-TSLP monoclonal antibody
- effect on skin lesions of itch of human AD: only modest effects
